Earlier results as cited in patent US11213486B2, “Drug-containing fat emulsion and nethod for producing same” (Techno Guard Co. Ltd., priority 2017, dated 2022).

Conditions: of the drug contained in the emulsion

Substance: dexamethasone palmitate
- Solubility in water (expression in Japanese Pharmacopoeia): Practically insoluble
